Experimental data as given in ChEMBL document CHEMBL1138033, “S-alkylated homocysteine derivatives: new inhibitors of human betaine-homocysteine S-methyltransferase” (J Med Chem, 2006).

Molecular target: T1, Betaine--homocysteine S-methyltransferase 1 (Homo sapiens, UniProt Q93088)
T1 sequence (Q93088 whole entry): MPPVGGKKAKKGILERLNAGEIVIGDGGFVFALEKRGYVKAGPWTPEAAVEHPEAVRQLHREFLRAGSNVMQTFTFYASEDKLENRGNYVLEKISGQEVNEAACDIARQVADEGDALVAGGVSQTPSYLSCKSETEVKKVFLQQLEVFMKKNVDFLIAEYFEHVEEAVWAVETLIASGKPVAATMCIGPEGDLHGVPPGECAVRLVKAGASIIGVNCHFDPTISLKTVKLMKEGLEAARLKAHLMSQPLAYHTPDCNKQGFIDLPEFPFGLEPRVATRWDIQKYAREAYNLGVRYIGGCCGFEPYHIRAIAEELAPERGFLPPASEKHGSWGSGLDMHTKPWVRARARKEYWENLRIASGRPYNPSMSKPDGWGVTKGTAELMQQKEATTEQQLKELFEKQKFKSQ
Experiment: Inhibition of human BHMT
How it was run: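 Recombinant human BHMT (0.2 µM) mixed with inhibitor at ten concentrations, then 1 mM D,L-homocysteine and 2 mM betaine (¹⁴C-methyl labelled, 0.15 µCi) added in 50 mM K-phosphate pH 7.5 with 10 mM β-mercaptoethanol; 30 min at 37°C. Enzyme-free blanks subtracted. IC50 by nonlinear regression; points in duplicate, three independent assays.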

pIC50: 7.06
Structure (SMILES): NC(CCSCCCCC(=O)O)C(=O)O (racemic)

pIC50: −log10 of the molar value.
